Assays:
[1] = target: 5-hydroxytryptamine receptor 2C (Homo sapiens, UniProt P28335); experiment: Displacement of [3H]Mesulergine from human 5-HT2C-INI receptor expressed in HEK293 cells by scintillation counting analysis; format: cell-based
[2] = target: 5-hydroxytryptamine receptor 2A (Homo sapiens, UniProt P28223); experiment: Displacement of [3H]Ketanserin from human 5-HT2A receptor expressed in HEK293 cells by scintillation counting analysis; format: cell-based

Amino acid sequences for entries named in this document (tags omitted). A change or cut given only in a name is not applied to a line headed by its entry.
UniProt P28335: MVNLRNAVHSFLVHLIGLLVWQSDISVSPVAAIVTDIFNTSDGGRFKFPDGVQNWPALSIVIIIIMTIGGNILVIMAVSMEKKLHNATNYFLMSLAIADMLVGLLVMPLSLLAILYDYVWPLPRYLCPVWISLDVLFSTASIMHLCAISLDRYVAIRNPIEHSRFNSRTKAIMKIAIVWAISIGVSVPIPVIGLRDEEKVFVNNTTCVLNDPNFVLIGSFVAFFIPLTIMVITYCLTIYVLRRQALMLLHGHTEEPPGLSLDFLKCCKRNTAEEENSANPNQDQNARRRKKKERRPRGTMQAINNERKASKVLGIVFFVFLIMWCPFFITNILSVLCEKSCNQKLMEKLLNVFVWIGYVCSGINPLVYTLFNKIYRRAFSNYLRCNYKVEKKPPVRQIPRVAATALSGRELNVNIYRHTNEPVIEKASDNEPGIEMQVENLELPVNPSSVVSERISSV
UniProt P28223, whole entry: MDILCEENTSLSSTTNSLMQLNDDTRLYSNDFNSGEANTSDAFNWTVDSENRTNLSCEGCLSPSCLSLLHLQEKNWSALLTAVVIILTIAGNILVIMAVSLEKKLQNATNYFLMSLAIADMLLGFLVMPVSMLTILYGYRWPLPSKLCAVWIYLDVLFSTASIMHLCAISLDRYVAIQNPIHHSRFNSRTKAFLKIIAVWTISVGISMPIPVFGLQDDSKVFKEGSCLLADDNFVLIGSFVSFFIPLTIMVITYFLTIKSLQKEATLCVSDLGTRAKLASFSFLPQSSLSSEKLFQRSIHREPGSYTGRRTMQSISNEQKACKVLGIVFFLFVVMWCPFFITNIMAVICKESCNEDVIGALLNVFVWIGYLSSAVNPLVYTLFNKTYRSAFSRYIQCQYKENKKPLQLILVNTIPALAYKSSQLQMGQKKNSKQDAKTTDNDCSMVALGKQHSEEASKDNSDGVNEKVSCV

CN(C)[C@@H]1Cc2ccccc2[C@@H](C2CCCCCCC2)C1
Ki [1]: 30 nM

CN(C)[C@@H]1Cc2ccccc2[C@@H](c2cccc(-c3ccccc3)c2)C1
Ki [2]: 44 nM

Source: ChEMBL document CHEMBL3400036, “Novel 4-substituted-N,N-dimethyltetrahydronaphthalen-2-amines: synthesis, affinity, and in silico docking studies at serotonin 5-HT2-type and histamine H1 G protein-coupled receptors” (Bioorg Med Chem, 2015)
